{
  "source": "patent US6143769A",
  "about": "“Phenylacetic acid benzylamides” (Karl Thomae GmbH, priority 1983, dated 2000)",
  "system": "glucose",
  "test": "Study 5: plasma glucose after 1 mg AG-EE 388 ZW i.v., oral solution or capsule",
  "format": "in vivo, human",
  "conditions": "1.25 h",
  "data": [
    {"smiles": "CCOc1cc(CC(=O)NC(CC(C)C)c2ccccc2N2CCCCC2)ccc1C(=O)O", "note": "(racemic) [AG-EE 388 ZW, 2-ethoxy-4-[N-[1-(2-piperidino-phenyl)-3-methyl-1-butyl]aminocarbonylmethyl]-benzoic acid]", "values": [
      {"measurement": "Glucose (mean)", "result": 4.40, "unit": "mmol/L"}
    ]}
  ]
}
